Key:
[1] = tested on: Kit225 T cells with STAT-dependent luciferase reporter stimulated with human recombinant IFNα; test: Kit225 T cell assay, IFNα stimulated STAT-dependent luciferase reporter; type: cell-based; conditions: read-out: IFNa Kit225 Reporter, LE (IC50), 200 U/mL human recombinant IFNα, 5-6 hours
Experimental: (§1) Kit225 T cells with a stably-integrated STAT-dependent luciferase reporter were plated in RPMI (Gibco) containing 10% heat-inactivated FBS (Gibco) and 100 U/mL PenStrep (Gibco). The cells were then stimulated with either 20 ng/mL human recombinant IL-23 or 200 U/mL human recombinant IFNα (PBL InterferonSource) for 5-6 hours. Luciferase expression was measured using the STEADY-GLO® Luciferase Assay System (Promega) according to the manufacturer's instructions. Inhibition data were calculated by comparison to no inhibitor control wells for 0% inhibition and non-stimulated control wells for 100% inhibition.

By UniProt entry, the sequences of proteins in these tests, tags left out. Chains listed by the source or under a name are the forms on record and can include a tag or linker. Residues count along the entry.
UniProt P29597, 575-869 with tags or gaps: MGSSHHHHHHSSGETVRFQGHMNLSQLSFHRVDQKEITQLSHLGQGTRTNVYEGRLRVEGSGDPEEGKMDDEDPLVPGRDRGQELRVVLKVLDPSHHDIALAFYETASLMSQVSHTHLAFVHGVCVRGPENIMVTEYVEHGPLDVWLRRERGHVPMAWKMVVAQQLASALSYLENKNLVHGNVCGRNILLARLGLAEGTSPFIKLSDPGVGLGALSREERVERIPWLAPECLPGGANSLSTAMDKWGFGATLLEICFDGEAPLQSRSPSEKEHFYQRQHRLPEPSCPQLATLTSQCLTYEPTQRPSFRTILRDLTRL

[2] = target: recombinantly expressed His-tagged protein corresponding to amino acids 575-869 of human Tyk2 (Homo sapiens, UniProt P29597); test: Probe displacement assay (scintillation proximity, radiolabeled probe); type: binding; conditions: read-out: Probe Displacement Data (EC50); 2.5 nM Tyk2 (575-869), 40 nM [3H] probe, 30 minutes at room temperature
[3] = tested on: Kit225 T cells with STAT-dependent luciferase reporter stimulated with human recombinant IL-23; test: Kit225 T cell assay, IL-23 stimulated STAT-dependent luciferase reporter; type: cell-based; conditions: read-out: IL-23 Kit225 Reporter, LE (IC50), 20 ng/mL human recombinant IL-23, 5-6 hours
Experimental: as §1

IC50 [1]: 6.71 µM
EC50 [2]: 0.13 µM
IC50 [3]: 3.25 µM
SMILES: CNC(=O)c1cnc(NC(=O)c2ccnc(N)c2)cc1Nc1ccc(Cl)cc1OC
